Measurements: PMC3030271 (ACS medicinal chemistry letters, 2010)

Molecular target: hA2AAR (Homo sapiens, UniProt P29274)
Experiment: Radioligand binding at hA2AAR
Conditions: binding affinity; HEK-293 cells expressing hA2AAR

Structure (SMILES): O[C@@H]1[C@H](O)CS[C@H]1n1cnc2c(NCc3cccc(Cl)c3)nc(Cl)nc21 [Compound 3]
- Ki at the hA2AAR: only weakly bound
